Assays:
[1] = target: Glycogen synthase kinase-3 beta (Homo sapiens, UniProt P49841); experiment: Inhibitory activity against glycogen synthase kinase-3 (GSK-3beta).
[2] = target: cAMP-dependent protein kinase (PKA) (Homo sapiens, UniProt P22694+P17612+P22612); experiment: Inhibitory activity against protein kinase A (PKA ); assay type: protein assay

By UniProt entry, the sequences of proteins in these tests, tags left out. Where a name states a change or a piece, a line headed by the entry shows the natural chain unless it says otherwise.
UniProt P49841: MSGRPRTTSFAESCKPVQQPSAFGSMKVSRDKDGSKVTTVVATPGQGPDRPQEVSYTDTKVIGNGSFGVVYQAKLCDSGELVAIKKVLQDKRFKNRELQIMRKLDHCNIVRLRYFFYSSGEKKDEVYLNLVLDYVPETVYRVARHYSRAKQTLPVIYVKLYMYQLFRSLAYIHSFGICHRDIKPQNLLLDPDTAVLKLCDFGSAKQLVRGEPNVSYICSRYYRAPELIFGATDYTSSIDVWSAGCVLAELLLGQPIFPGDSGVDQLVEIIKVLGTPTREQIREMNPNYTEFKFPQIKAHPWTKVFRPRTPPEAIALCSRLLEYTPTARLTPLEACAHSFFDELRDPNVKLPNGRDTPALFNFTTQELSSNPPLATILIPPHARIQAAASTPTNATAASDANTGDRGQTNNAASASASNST

Q: Which IC50 [1] does the source give for `O=C(CBr)c1ccc([N+](=O)[O-])cc1` here?
A: Its IC50 is 2 µM.

Q: Which IC50 [1] does the source give for `O=C(CBr)c1ccc(Cl)cc1` here?
A: The IC50 was 1 µM.

Q: What about the IC50 [2] of the same compound?
A: The IC50 was over 100 µM.

Q: What does the source list for `COc1ccc(C(=O)CBr)cc1`?
A: IC50 [1]: 1 µM; IC50 [2]: > 100 µM

Q: Which IC50 [1] does the source give for `Cc1ccc(C(=O)CBr)cc1` here?
A: Its IC50 is 2.5 µM.

Q: What about the IC50 [2] of the same compound?
A: Its IC50 is over 100 µM.
